Laboratory results taken from patent US20260384451A1, “6-ARYL IMIDAZO[2,1-B]THI/OpXAZOLE-2-CARBOXILIC ACID DERIVATIVE AND PHARMACEUTICAL COMPOSITION FOR TREATING ALZHEIMER'S DISEASE CONTAINING SAME AS ACTIVE INGREDIENT” (published 2026).

Amino acid sequences for entries named in this document (tags omitted).
UniProt P53779, whole entry: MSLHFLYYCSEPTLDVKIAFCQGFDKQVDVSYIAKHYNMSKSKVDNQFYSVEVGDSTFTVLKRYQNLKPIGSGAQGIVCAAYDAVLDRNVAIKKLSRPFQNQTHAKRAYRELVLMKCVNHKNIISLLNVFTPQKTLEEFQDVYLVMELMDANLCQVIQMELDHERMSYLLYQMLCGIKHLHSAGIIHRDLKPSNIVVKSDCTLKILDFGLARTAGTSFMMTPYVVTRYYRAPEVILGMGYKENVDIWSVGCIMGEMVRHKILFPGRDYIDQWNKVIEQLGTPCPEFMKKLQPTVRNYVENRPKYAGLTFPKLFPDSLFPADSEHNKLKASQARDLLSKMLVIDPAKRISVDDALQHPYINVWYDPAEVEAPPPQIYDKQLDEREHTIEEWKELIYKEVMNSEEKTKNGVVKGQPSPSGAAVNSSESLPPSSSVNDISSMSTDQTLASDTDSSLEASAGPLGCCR

Target: JNK3 (Homo sapiens, UniProt P53779)
Assay: In vitro JNK3 inhibitory activity assay
Settings: read-out: JNK3 inhibitory activity (IC50), class symbols
[1] = Table 1, imidazo[2,1-b]thiazole derivatives
[2] = Table 3, imidazo[2,1-b]oxazole derivatives
[3] = Table 7, imidazo[2,1-b]oxazole-based covalent inhibitors
[4] = Table 2, imidazo[2,1-b]thiazole derivatives
[5] = Table 6, imidazo[2,1-b]thiazole-based covalent inhibitors
[6] = Table 5, imidazo[2,1-b]oxazole derivatives

SMILES: CCOC(=O)c1cn2c(-c3ccnc(NC4CCN(C(=O)C5CC5)CC4)n3)c(-c3ccc4ccccc4c3)nc2o1
- IC50 (Table 4, imidazo[2,1-b]oxazole derivatives): 1 to 30 nM

SMILES: CNC(=O)c1cn2c(-c3ccnc(N[C@H]4CCCN(C(=O)N(C)C)C4)n3)c(-c3ccc(Cl)c(Cl)c3)nc2s1
- IC50 [1]: 30 to 1000 nM

SMILES: CNC(=O)c1cn2c(-c3ccnc(N[C@@H]4CCCN(C(=O)N(C)C)C4)n3)c(-c3ccc4ccccc4c3)nc2o1
- IC50 [2]: < 1 nM

SMILES: C=CC(=O)Nc1cn2c(-c3ccnc(NC4CCOCC4)n3)c(-c3ccc4ccccc4c3)nc2o1
- IC50 [3]: < 1 nM

SMILES: CCOC(=O)c1cn2c(-c3ccnc(N[C@@H]4CCCN(C(=O)C5CC5)C4)n3)c(-c3ccc(F)c(C(F)(F)F)c3)nc2s1
- IC50 [1]: 1 to 30 nM

SMILES: CNC(=O)c1cn2c(-c3ccnc(N[C@H]4CCCN(C(=O)N(C)C)C4)n3)c(-c3ccc4ccccc4c3)nc2s1
- IC50 [1]: 30 to 1000 nM

SMILES: CCOC(=O)c1cn2c(-c3ccnc(N[C@@H]4CCCN(C(=O)C5CC5)C4)n3)c(-c3ccc(Cl)c(Cl)c3)nc2s1
- IC50 [1]: 1 to 30 nM

SMILES: CNC(=O)c1cn2c(-c3ccnc(N[C@H]4CCCN(C(=O)C5CC5)C4)n3)c(-c3ccc(F)c(Cl)c3)nc2o1
- IC50 [2]: < 1 nM

SMILES: CNC(=O)c1cn2c(-c3ccnc(NC4CCOCC4)n3)c(-c3ccc4ccccc4c3)nc2s1
- IC50 [4]: 1 to 30 nM

SMILES: CCOC(=O)c1cn2c(-c3ccnc(N[C@H]4CCCN(C(=O)C5CC5)C4)n3)c(-c3ccc4ccccc4c3)nc2s1
- IC50 [1]: 30 to 1000 nM

SMILES: CCOC(=O)c1cn2c(-c3ccnc(N[C@@H]4CCN(C(=O)C5CC5)C4)n3)c(-c3ccc4ccccc4c3)nc2o1
- IC50 [2]: > 10000 nM

SMILES: CNC(=O)c1cn2c(-c3ccnc(NC4CCOCC4)n3)c(-c3ccc(F)c(Cl)c3)nc2s1
- IC50 [4]: 1 to 30 nM

SMILES: C=CC(=O)Nc1cn2c(-c3ccnc(NC4CCOCC4)n3)c(-c3ccc(F)c(Cl)c3)nc2o1
- IC50 [3]: < 1 nM

SMILES: CN(C)/C=C/C(=O)c1cn2c(-c3ccnc(NC4CCCCC4)n3)c(-c3ccc(Cl)c(Cl)c3)nc2s1
- IC50 [5]: 30 to 1000 nM

SMILES: NC(=O)c1cn2c(-c3ccnc(NC4CCCCC4)n3)c(-c3ccc4c(c3)OCCO4)nc2o1
- IC50 [6]: 1 to 30 nM

SMILES: CNC(=O)c1cn2c(-c3ccnc(NC4CCCCC4)n3)c(-c3ccc(F)c(Cl)c3)nc2o1
- IC50 [6]: < 1 nM

SMILES: CCOC(=O)c1cn2c(-c3ccnc(NC4CCOCC4)n3)c(-c3ccc4ccccc4c3)nc2o1
- IC50 [6]: < 1 nM

SMILES: CN(C)/C=C/C(=O)c1cn2c(-c3ccnc(NC4CCCCC4)n3)c(-c3ccc(Cl)c(Cl)c3)nc2o1
- IC50 [3]: 30 to 1000 nM

SMILES: CN(C)C(=O)N1CCC[C@H](Nc2nccc(-c3c(-c4ccc(F)c(C(F)(F)F)c4)nc4sc(C(N)=O)cn34)n2)C1
- IC50 [1]: 30 to 1000 nM

SMILES: NC(=O)c1cn2c(-c3ccnc(N[C@H]4CCCN(C(=O)C5CC5)C4)n3)c(-c3ccc4ccccc4c3)nc2s1
- IC50 [1]: 30 to 1000 nM

SMILES: CCOC(=O)c1cn2c(-c3ccnc(N[C@H]4CCCN(C(=O)N(C)C)C4)n3)c(-c3ccc4ccccc4c3)nc2o1
- IC50 [2]: 30 to 1000 nM

SMILES: CNC(=O)c1cn2c(-c3ccnc(N[C@@H]4CCCN(C(=O)C5CC5)C4)n3)c(-c3ccc4c(c3)OCCO4)nc2o1
- IC50 [2]: 1 to 30 nM

SMILES: NC(=O)c1cn2c(-c3ccnc(NC4CCCCC4)n3)c(-c3ccc(Cl)c(Cl)c3)nc2s1
- IC50 [4]: 1 to 30 nM

SMILES: C=CC(=O)Nc1cn2c(-c3ccnc(NC4CCCCC4)n3)c(-c3ccc4ccccc4c3)nc2o1
- IC50 [3]: < 1 nM

SMILES: NC(=O)c1cn2c(-c3ccnc(N[C@H]4CCCN(C(=O)C5CC5)C4)n3)c(-c3ccc4c(c3)OCCO4)nc2s1
- IC50 [1]: 30 to 1000 nM

SMILES: CN(C)C(=O)N1CCC[C@H](Nc2nccc(-c3c(-c4ccc(Cl)c(Cl)c4)nc4sc(C(N)=O)cn34)n2)C1
- IC50 [1]: 30 to 1000 nM

SMILES: C#CCNC(=O)c1cn2c(-c3ccnc(NC4CCOCC4)n3)c(-c3ccc(Cl)c(Cl)c3)nc2s1
- IC50 [5]: 1 to 30 nM

SMILES: NC(=O)c1cn2c(-c3ccnc(N[C@H]4CCCN(C(=O)C5CC5)C4)n3)c(-c3ccc(F)c(C(F)(F)F)c3)nc2s1
- IC50 [1]: 30 to 1000 nM

SMILES: NC(=O)c1cn2c(-c3ccnc(NC4CCOCC4)n3)c(-c3ccc(F)c(Cl)c3)nc2s1
- IC50 [4]: < 1 nM

SMILES: CNC(=O)c1cn2c(-c3ccnc(NC4CCCCC4)n3)c(-c3ccc4c(c3)OCCO4)nc2s1
- IC50 [4]: 30 to 1000 nM

SMILES: NC(=O)c1cn2c(-c3ccnc(NC4CCOCC4)n3)c(-c3ccc4c(c3)OCCO4)nc2s1
- IC50 [4]: 30 to 1000 nM

SMILES: CCOC(=O)c1cn2c(-c3ccnc(NC4CCCCC4)n3)c(-c3ccc4ccccc4c3)nc2s1
- IC50 [4]: 1 to 30 nM

SMILES: CCOC(=O)c1cn2c(-c3ccnc(N[C@@H]4CCCN(C(=O)N(C)C)C4)n3)c(-c3ccc(F)c(C(F)(F)F)c3)nc2s1
- IC50 [1]: 1 to 30 nM

SMILES: CN(C)/C=C/C(=O)c1cn2c(-c3ccnc(NC4CCOCC4)n3)c(-c3ccc4ccccc4c3)nc2o1
- IC50 [3]: 1 to 30 nM

SMILES: CNC(=O)c1cn2c(-c3ccnc(NCCOC)n3)c(-c3ccc4ccccc4c3)nc2s1
- IC50 [4]: 1 to 30 nM

SMILES: C=CC(=O)c1cn2c(-c3ccnc(NC4CCOCC4)n3)c(-c3ccc4ccccc4c3)nc2o1
- IC50 [3]: 1 to 30 nM

SMILES: C#CCNC(=O)c1cn2c(-c3ccnc(NC4CCOCC4)n3)c(-c3ccc4ccccc4c3)nc2s1
- IC50 [5]: 1 to 30 nM

SMILES: CNC(=O)c1cn2c(-c3ccnc(NC4CCOCC4)n3)c(-c3ccc4c(c3)OCCO4)nc2o1
- IC50 [6]: 1 to 30 nM

SMILES: NC(=O)c1cn2c(-c3ccnc(NC4CCCCC4)n3)c(-c3ccc(F)c(Cl)c3)nc2s1
- IC50 [4]: 1 to 30 nM

SMILES: CNC(=O)c1cn2c(-c3ccnc(N[C@@H]4CCCN(C(=O)N(C)C)C4)n3)c(-c3ccc(Cl)c(Cl)c3)nc2s1
- IC50 [1]: < 1 nM

SMILES: C#CCNC(=O)c1cn2c(-c3ccnc(NC4CCOCC4)n3)c(-c3ccc(F)c(Cl)c3)nc2s1
- IC50 [5]: < 1 nM

SMILES: CNC(=O)c1cn2c(-c3ccnc(N[C@@H]4CCCN(C(=O)N(C)C)C4)n3)c(-c3ccc(F)c(C(F)(F)F)c3)nc2s1
- IC50 [1]: 1 to 30 nM

SMILES: CCOC(=O)c1cn2c(-c3ccnc(N[C@H]4CCCN(C(=O)C5CC5)C4)n3)c(-c3ccc4c(c3)OCCO4)nc2s1
- IC50 [1]: 30 to 1000 nM

SMILES: NC(=O)c1cn2c(-c3ccnc(N[C@@H]4CCCN(C(=O)C5CC5)C4)n3)c(-c3ccc(F)c(C(F)(F)F)c3)nc2s1
- IC50 [1]: 1 to 30 nM

SMILES: CCOC(=O)c1cn2c(-c3ccnc(N[C@H]4CCCN(C(=O)N(C)C)C4)n3)c(-c3ccc(F)c(C(F)(F)F)c3)nc2s1
- IC50 [1]: 30 to 1000 nM

SMILES: NC(=O)c1cn2c(-c3ccnc(NC4CCOCC4)n3)c(-c3ccc(F)c(Cl)c3)nc2o1
- IC50 [6]: 1 to 30 nM

SMILES: CCOC(=O)c1cn2c(-c3ccnc(N[C@@H]4CCCN(C(=O)N(C)C)C4)n3)c(-c3ccc4ccccc4c3)nc2o1
- IC50 [2]: < 1 nM

SMILES: NC(=O)c1cn2c(-c3ccnc(N[C@H]4CCN(C(=O)C5CC5)C4)n3)c(-c3ccc4ccccc4c3)nc2o1
- IC50 [2]: 1000 to 10000 nM

SMILES: CNC(=O)c1cn2c(-c3ccnc(NC4CCCCC4)n3)c(-c3ccc(Cl)c(Cl)c3)nc2s1
- IC50 [4]: 1 to 30 nM

SMILES: NC(=O)c1cn2c(-c3ccnc(NC4CCOCC4)n3)c(-c3ccc4ccccc4c3)nc2o1
- IC50 [6]: < 1 nM

SMILES: CNC(=O)c1cn2c(-c3ccnc(NC4CCOCC4)n3)c(-c3ccc(Cl)c(Cl)c3)nc2s1
- IC50 [4]: 1 to 30 nM

SMILES: CCOC(=O)c1cn2c(-c3ccnc(NC4CCOCC4)n3)c(-c3ccc4c(c3)OCCO4)nc2o1
- IC50 [6]: 1 to 30 nM

SMILES: CNC(=O)c1cn2c(-c3ccnc(NC4CCOCC4)n3)c(-c3ccc4c(c3)OCCO4)nc2s1
- IC50 [4]: 1 to 30 nM

SMILES: NC(=O)c1cn2c(-c3ccnc(N[C@H]4CCCN(C(=O)C5CC5)C4)n3)c(-c3ccc4ccccc4c3)nc2o1
- IC50 [2]: < 1 nM

SMILES: CNC(=O)c1cn2c(-c3ccnc(NC4CCOCC4)n3)c(-c3ccc(F)c(Cl)c3)nc2o1
- IC50 [6]: < 1 nM

SMILES: CNC(=O)c1cn2c(-c3ccnc(N[C@H]4CCCN(C(=O)N(C)C)C4)n3)c(-c3ccc4ccccc4c3)nc2o1
- IC50 [2]: 1 to 30 nM

SMILES: NC(=O)c1cn2c(-c3ccnc(NC4CCCCC4)n3)c(-c3ccc4c(c3)OCCO4)nc2s1
- IC50 [4]: 1 to 30 nM

SMILES: CCOC(=O)c1cn2c(-c3ccnc(NC4CCCCC4)n3)c(-c3ccc(F)c(Cl)c3)nc2o1
- IC50 [6]: < 1 nM

Where two headings read alike, the source gives them in different places.
